{
  "sequences": {"note": "Chains of the proteins cited; added tags and fusions are not shown. A line that says so, or that is headed by a name, gives the form on record, which may keep a tag or linker.", "UniProt O76083, other isoform, or with tags, fused parts or gaps": "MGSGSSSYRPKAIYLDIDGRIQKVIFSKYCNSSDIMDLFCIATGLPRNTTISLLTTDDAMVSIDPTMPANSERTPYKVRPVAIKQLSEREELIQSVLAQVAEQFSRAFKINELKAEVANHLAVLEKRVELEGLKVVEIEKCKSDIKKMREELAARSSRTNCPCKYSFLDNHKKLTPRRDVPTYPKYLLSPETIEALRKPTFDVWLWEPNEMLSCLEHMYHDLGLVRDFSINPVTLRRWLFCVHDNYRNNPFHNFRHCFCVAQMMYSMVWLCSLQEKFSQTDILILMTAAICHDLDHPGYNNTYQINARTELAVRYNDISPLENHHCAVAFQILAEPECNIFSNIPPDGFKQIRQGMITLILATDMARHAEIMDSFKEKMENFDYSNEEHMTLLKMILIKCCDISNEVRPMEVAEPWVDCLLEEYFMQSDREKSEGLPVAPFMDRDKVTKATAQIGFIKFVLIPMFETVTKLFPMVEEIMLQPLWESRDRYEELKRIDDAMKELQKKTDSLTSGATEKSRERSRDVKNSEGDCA"},
  "source": "patent US10370336B2",
  "about": "“Phenyl-cyanoquinolinone PDE9 inhibitors” (Merck Sharp & Dohme Corp., priority 2015, dated 2019)",
  "molecular_target": "human PDE9 enzyme (PDE9A2) (Homo sapiens (Human), UniProt O76083)",
  "test": "biochemical",
  "data": [
    {"molecule": "CCc1ccc(-c2c(C)c(=O)[nH]c3ccccc23)cc1", "note": "[Example 1-14, 4-(4-Ethylphenyl)-3-methylquinolin-2(1H)-one]", "values": [
      {"measurement": "Ki", "result": 444, "unit": "nM"}
    ]}
  ]
}
